These results are taken from patent US9803021B2 (The Regents of the University of California, priority 2012, dated 2017).

What all share (format): cell-based, human
The subject of assay [1] is OCI-My5. Kind of assay: Senescence induced β-gal activity at pH 6 (C12FDG, flow cytometry). Conditions: OCI-My5, 1 nM, 3 days (also 4, 6, 7 days). The procedure: (§1) Senescence induced β-galactosidase (β-gal) activity was detected as described previously (Debacq-Chainiaux et al. (2009) Nature Protocols, 4: 1798-1806). […] To induce lysosomal alkalinization, cells were incubated in 100 nM bafilomycin A1 (Sigma) for 1 h. Then cells were incubated for 30 min with the β-gal substrate dodecanoylaminofluorescein di-β-D-galactopyranoside (C12FDG; Invitrogen), which becomes fluorescent after cleavage by β-gal. After washing twice with cold PBS, cells were resuspended in cold PBS containing 1 mM phenylethyl thiogalactoside (PETG), a β-gal inhibitor, and analyzed by flow cytometry for C12-fluorescein.
(§2) Intracellular β-galactosidase (β-gal) activity was measured as an indicator for replicative senescence. […] After treatment, cells were incubated with 100 nM bafilomycin A1 (Sigma) for 1 hour to induce lysosomal alkalinization. Then cells were incubated for 30 minutes with the 33 μM of β-gal substrate dodecanoylaminofluorescein di-β-D-galactopyranoside (C12FDG; Invitrogen), which becomes fluorescent after cleavage to C12-fluorescein. After washing twice with cold PBS, cells were resuspended in cold PBS containing 1 mM phenylethyl thiogalactoside (PETG), a β-gal inhibitor, and analyzed by flow cytometry for C12-fluorescein.

For assay [2], the system named is ANBL-6. The assay is described as above. Conditions: ANBL-6, 1 nM, 3 days (data not shown). Here is the method:
as §1, §2

In assay [3] the test system is U266. Described as above. To be noted: U266, 1 nM, 3 days. Here is the method: as §1, §2
The test system of assay [4] is MM1-144. The assay is described as above. Conditions: MM1-144, 1 nM, 3 days. Here is the method: as §1, §2
For assay [5], the system named is OCI-My5. Description: Apoptosis assay (Annexin V / PI flow cytometry). Conditions: 3 days; for induction of apoptosis, result in words: OCI-My5, 500 pM (also 1 nM). The procedure: (§3) Cells were analyzed by flow cytometry using FlowJo software.
(§4) Cells were stained with Alexa Fluor 488-labeled Annexin V and propidium iodide (PI) using the Vybrant Apoptosis Kit #2 (Molecular Probes) as per manufacturer's instructions and analyzed by flow cytometry.
For orientation: Flow cytometry measures light scatter and fluorescence of single cells or particles in a stream.

Assay [6] has as its system NCI-H929. Kind of assay: Apoptosis assay (Annexin V / PI flow cytometry). Conditions: 3 days. The procedure:
as §3, §4

Assay [7] has as its system ANBL-6. Kind of assay: Apoptosis assay (Annexin V / PI flow cytometry). To be noted: 3 days. Here is the method: as §3, §4
Assay [8] deals with U266. Description: Apoptosis assay (Annexin V / PI flow cytometry). Conditions: 3 days. The procedure:
as §3, §4

For assay [9], the system named is MM1-144. Kind of assay: Apoptosis assay (Annexin V / PI flow cytometry). To be noted: 3 days. Here is the method: as §3, §4
The subject of the next assay is OCI-My 5 cells. Kind of assay: Cell proliferation assay (3[H]-thymidine incorporation). To be noted: OCI-My 5, 0.3 pM-25 nM, 3 days. The procedure:
The proliferative status of the cells was determined by measuring ^3[H]-thymidine incorporation.
Background: Incorporation of labelled thymidine or its analogues reports DNA synthesis.

A further assay relates to ppRb in NCI-H929. Description: Western blot of ppRb. Conditions: NCI-H929, 1 nM, 48 hours. The procedure: (§5) Cells were lysed using RIPA buffer (50 mM Tris HCl pH 8, 150 mM NaCl, 1% NP-40, 0.5% sodium deoxycholate, 0.1% SDS) containing a protease inhibitor cocktail (Roche Applied Science, Indianapolis, Ind.). The cytosolic fractions were reduced with β-mercaptoethanol and separated by SDS-PAGE. Following transfer to nitrocellulose membrane (Whatman, Piscataway, N.J.) and blocking, samples were incubated with the following primary rabbit antibodies: anti-IRF4 (Epitomics, Berlingham, Calif.), anti-glyceraldehyde-3-phosphate dehydrogenase (GAPDH; Sigma), anti-ppRb Ser807/811 (Santa Cruz Biotechnology, Santa Cruz, Calif.), anti-cyclin D (Millipore, Billerica, Mass.), or anti-β tubulin (Abcam, Cambridge, Mass.). Secondary anti-rabbit IgG-HRP (GE Healthcare, Billerica, Mass.) was used and the blots were developed using enhanced chemiluminescence (ECL; Thermo Scientific, Waltham, Mass.).
(§6) Cells were lysed using RIPA buffer (50 mM Tris-HCl pH 8, 150 mM NaCl, 1% NP-40, 0.5% sodium deoxycholate, 0.1% SDS) containing a protease inhibitor cocktail (Roche Applied Science). The cytosolic fractions were reduced with β-mercaptoethanol and separated by SDS PAGE. Following transfer to nitrocellulose membrane (Whatman) and blocking, samples were incubated with the following primary rabbit antibodies: anti-IRF-4 (Epitomics), anti-glyceraldehyde-3-phosphate dehydrogenase (GAPDH; Sigma), or anti-ppRb Ser807/811 (Santa Cruz Biotechnology). Secondary anti-rabbit IgG-HRP (GE Healthcare) was used and the blots were developed using enhanced chemiluminescence (ECL; Thermo Scientific). Films were imaged using a Multilmage™ Light Cabinet (Alpha Innotech Corp.) and analyzed using NIH Image J. Bands were normalized to a GAPDH loading control and expressed as percentage band intensity of untreated cells.
(In western blotting, separated proteins are transferred to a membrane and probed.)

The next assay relates to ppRb in MM1-144. Kind of assay: Western blot of ppRb. Conditions: MM1-144, 1 nM, 48 hours. Here is the method: as §5, §6
A further assay relates to ppRb in OCI-My5. Description: Western blot of ppRb. Conditions: OCI-My5, 1 nM, 48 hours. Here is the method: as §5, §6
Assay [10] concerns NCI-H929. Description: Ki-67 stain (flow cytometry). To be noted: NCI-H929, 500 pM, 3 days. The procedure:
(§7) Senescence induced β-galactosidase (β-gal) activity was detected as described previously (Debacq-Chainiaux et al. (2009) Nat. Protoc., 4: 1798-1806) and in Supplemental methods. To detect Ki-67 protein, cells were stained and analyzed by flow cytometry as described in Supplemental methods.
(§8) After treatment, cells were fixed with methanol on ice and then incubated with anti-Ki-67 rabbit IgG (Abcam). Cells were then stained with anti-rabbit IgG-FITC (Sigma) and analyzed by flow cytometry.

The subject of assay [11] is MM1-144. Kind of assay: Ki-67 stain (flow cytometry). Conditions: MM1-144, 500 pM, 3 days. Here is the method:
as §7, §8

Entries after “also recorded” stand apart in the source; their conditions may differ.

As to “IFNα: recombinant human interferon alpha 2, unfused”, the “β-gal activity at pH 6 (senescence), result in words” value is recorded as “little or no increase in β-gal activity” in the assay with OCI-My5 [1], “no increases” with ANBL-6 [2], “no increase under any conditions” in the assay on U266 [3] and “increases in β-gal activity” in the assay with MM1-144 [4]. Further, the “induction of apoptosis at low concentration, result in words” value is on record as “no effect” with OCI-My5 [5] (OCI-My5, 5 pM); “did not cause apoptosis” in the assay with NCI-H929 [6] (NCI-H929, 1 pM); “did not cause apoptosis” in the assay with ANBL-6 [7] (ANBL-6, 1 pM); “no effect” with U266 [8] (U266, 1 pM); “did not cause apoptosis” with MM1-144 [9] (MM1-144, 1 pM). The “induction of apoptosis, result in words” value with OCI-My5 [5] is on record as “did not induce apoptosis; also recorded: did not cause apoptosis or blocks to cell cycle progression”; with OCI-My5 [5] (listed as IFNα2), “caused apoptosis”; in the assay on NCI-H929 [6] (H929 (NCI-H929), 500 pM, listed as IFNα2) it was “caused apoptosis”; with ANBL-6 [7] (ANBL-6, 500 pM, listed as IFNα2), “caused apoptosis”; with U266 [8] (U266, 500 pM, listed as IFNα2) it was “caused apoptosis”; in the assay on MM1-144 [9] (MM144 (MM1-144), 500 pM) it was “caused apoptosis”. For the same substance, the “proliferation (3[H]-thymidine incorporation), result in words” value with OCI-My 5 cells was “decrease in proliferation”. The “ppRb levels (Western blot)” value in the assay with ppRb in NCI-H929, in the assay with ppRb in MM1-144 and in the assay with ppRb in OCI-My5 was “decreased” throughout. Further, the “Ki-67 negative (non-dividing) cells, result in words” value in the assay on NCI-H929 [10] and in the assay on MM1-144 [11] was “more Ki-6T cells as compared to untreated control” each time.
